Results from patent US9284333B2, “Fused pyrroledicarboxamides and their use as pharmaceuticals” (SANOFI, priority 2012, dated 2016).

Protein sequences, listed by entry. Tags and fused reporters are not part of them. Lines headed by an entry give the natural chain unless they say otherwise; changes in a name come on top.
UniProt O14649: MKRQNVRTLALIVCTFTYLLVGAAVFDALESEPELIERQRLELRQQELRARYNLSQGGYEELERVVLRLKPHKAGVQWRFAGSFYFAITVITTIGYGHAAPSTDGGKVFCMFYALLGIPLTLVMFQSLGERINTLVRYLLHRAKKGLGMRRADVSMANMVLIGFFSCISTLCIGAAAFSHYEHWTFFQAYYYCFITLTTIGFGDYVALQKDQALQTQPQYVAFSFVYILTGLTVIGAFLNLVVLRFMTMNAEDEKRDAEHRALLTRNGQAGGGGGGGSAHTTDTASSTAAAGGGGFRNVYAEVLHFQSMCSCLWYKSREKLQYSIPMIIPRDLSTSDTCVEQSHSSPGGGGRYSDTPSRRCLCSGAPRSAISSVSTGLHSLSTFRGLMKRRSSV

Target: Human TASK-1 channels (Homo sapiens (Human), UniProt O14649)
Test: Determination of the activity on the TASK-1 channel in Xenopus oocytes (two-microelectrode voltage clamp)
Format: cell-based
Conditions: human TASK-1 expressed in Xenopus oocytes, room temperature; read-out: IC50 value for TASK-1 inhibition
Method: Determination of the activity on the TASK-1 channel in Xenopus oocytes
Human TASK-1 channels were expressed in Xenopus oocytes. For this purpose, oocytes were isolated from Xenopus laevis and defoliculated. Subsequently, TASK-1-encoding RNA synthesized in vitro was injected into the oocytes. After two days of TASK-1 protein expression, TASK-1 currents were measured by two-microelectrode voltage clamp. Data were acquired and analyzed using a TEC-10cx amplifier (NPI Electronic, Tamm, Germany) connected to an ITC-16 interface (Instrutech Corp., Long Island, USA) and Pulse software (HEKA Elektronik, Lambrecht, Germany). Oocytes were clamped to −90 mV and TASK-1 mediated currents were measured during 500 ms voltage pulses to 40 mV. Oocytes were continuously superfused with ND96 buffer containing 96 mM sodium chloride, 2 mM potassium chloride, 1.8 mM calcium chloride, 1 mM magnesium chloride, 5 mM 4-(2-hydroxyethyl)-piperazine-1-ethanesulfonic acid (HEPES; pH adjusted to 7.4 with sodium hydroxide). All experiments were performed at room temperature. Test compounds were consecutively added to the bath solution at rising concentrations. Compound effects were calculated as the percentage inhibition of TASK-1 control current before compound addition. IC50 values were obtained by fitting the data to the general dose-response equation.

Row | IC50 [nM] | Compound
1 | 470 | CC[C@@H](NC(=O)c1c(Cl)c(C(=O)N2CCC[C@@H]2C)n2c1COCC2)c1ccccc1 [16rw, 7-Chloro-6-((S)-2-methyl-pyrrolidine-1-carbonyl)-3,4-dihydro-1H-pyrrolo[2,1-c][1,4]oxazine-8-carboxylic acid ((R)-1-phenyl-propyl)-amide]
2 | 470 | CC[C@@H](NC(=O)c1cc(C(=O)N2CCC[C@@H]2C)c2n1CCSC2)c1ccccc1 [16kr, 8-((S)-2-Methyl-pyrrolidine-1-carbonyl)-3,4-dihydro-1H-pyrrolo[2,1-c][1,4]thiazine-6-carboxylic acid ((R)-1-phenyl-propyl)-amide]
3 | 470 | CC[C@@H](NC(=O)c1cc(C(=O)N2CCC[C@@H]2C)n2c1COCC2)c1ccc(OC(F)F)cc1 [16av, 6-((S)-2-Methyl-pyrrolidine-1-carbonyl)-3,4-dihydro-1H-pyrrolo[2,1-c][1,4]oxazine-8-carboxylic acid [(R)-1-(4-difluoromethoxy-phenyl)-propyl]-amide]
4 | 870 | CC[C@@H](NC(=O)c1c(Cl)c(C(=O)N2CCC[C@@H]2C)n2c1COCC2)c1ccc(C(F)(F)F)nc1 [16rv, 7-Chloro-6-((S)-2-methyl-pyrrolidine-1-carbonyl)-3,4-dihydro-1H-pyrrolo[2,1-c][1,4]oxazine-8-carboxylic acid [(R)-1-(6-trifluoromethyl-pyridin-3-yl)-propyl]-amide]

Further lines, the compound ahead of its results:

Row | Compound | IC50 [nM]
5 | CC[C@H]1CCCN1C(=O)c1cc(C(=O)N[C@H](CC)c2ccc(C(F)(F)F)nc2)c2n1CCOC2 [16le, 6-((S)-2-Ethyl-pyrrolidine-1-carbonyl)-3,4-dihydro-1H-pyrrolo[2,1-c][1,4]oxazine-8-carboxylic acid [(R)-1-(6-trifluoromethyl-pyridin-3-yl)-propyl]-amide] | 470
6 | CC[C@@H](NC(=O)c1cc(C(=O)N[C@H](C)c2ccc(F)cc2)c2n1CCOC2C)c1ccccc1 (stereo partly drawn) [16lg, 1-Methyl-3,4-dihydro-1H-pyrrolo[2,1-c][1,4]oxazine-6,8-dicarboxylic acid 8-{[(R)-1-(4-fluoro-phenyl)-ethyl]-amide} 6-[((R)-1-phenyl-propyl)-amide]] | 46
7 | CC[C@@H](NC(=O)c1cc(C(=O)NC(C)c2ccon2)n2c1COCC2)c1ccccc1 (mixture of isomers) [16in, 3,4-Dihydro-1H-pyrrolo[2,1-c][1,4]oxazine-6,8-dicarboxylic acid 6-[(-1-isoxazol-3-yl-ethyl)-amide] 8-[((R)-1-phenyl-propyl)-amide]] | 370
8 | CC[C@@H](NC(=O)c1cc(C(=O)N2CCC[C@@H]2C)n2c1COCC2)c1ccc(C(F)(F)F)nc1 [16e, 6-((S)-2-methyl-pyrrolidine-1-carbonyl)-3,4-dihydro-1H-pyrrolo[2,1-c][1,4]oxazine-8-carboxylic acid [(R)-1-(6-trifluoromethyl-pyridin-3-yl)-propyl]-amide] | 470
9 | CC[C@H](NC(=O)c1cc(C(=O)NCC2CC2)c2n1CCOC2)c1ccccc1 [16jr, 3,4-Dihydro-1H-pyrrolo[2,1-c][1,4]oxazine-6,8-dicarboxylic acid 8-cyclopropylmethyl-amide 6-[((S)-1-phenyl-propyl)-amide]] | 470
10 | CC[C@@H](NC(=O)c1cc(C(=O)NC(C)c2ccon2)n2c1COCC2)c1ccccc1 (mixture of isomers) [16im, 3,4-Dihydro-1H-pyrrolo[2,1-c][1,4]oxazine-6,8-dicarboxylic acid 6-[(-1-isoxazol-3-yl-ethyl)-amide] 8-[((R)-1-phenyl-propyl)-amide]] | 140
11 | CC(C)[C@@H](NC(=O)c1cc(C(=O)N[C@H](C)c2ncccn2)c2n1CCOC2)c1ccc(F)cc1 (racemic) [16ls, 3,4-Dihydro-1H-pyrrolo[2,1-c][1,4]oxazine-6,8-dicarboxylic acid 6-{[(R)-1-(4-fluoro-phenyl)-2-methyl-propyl]-amide} 8-[((R)-1-pyrimidin-2-yl-ethyl)-amide]] | 470
